The values below come from ChEMBL document CHEMBL2150881, “JD-5006 and JD-5037: peripherally restricted (PR) cannabinoid-1 receptor blockers related to SLV-319 (Ibipinabant) as metabolic disorder therapeutics devoid of CNS liabilities” (Bioorg Med Chem Lett, 2012).

The test system of data set [1] is Mus musculus. Briefly: Ratio of drug uptake in brain to plasma in chow fed mouse at 100 mg/kg, po for 3 days measured after 1 hr post last dose.
Data set [2] in a line: Efflux ratio of permeability from […] in MDR expressing MDCK cells. Particulars: dog, MDCK-MDR1. It counts as ADME, cell-based, Canis lupus familiaris.

Where only a bound is given, the exact number is not on record here.

What is called efflux ratio is the permeability from basolateral to apical divided by that in the opposite direction, in the common usage. Take `CC(C)[C@H](N/C(=N\S(=O)(=O)c1ccc(Cl)cc1)N1CC(c2ccccc2)C(c2ccc(Cl)cc2)=N1)C(N)=O` (some centres undefined): in data set [1], the BPR is on record as below 1%. The efflux ratio in data set [2] was 15.
Consider `NC(=O)CN=C(NS(=O)(=O)c1ccc(Cl)cc1)N1CC(c2ccccc2)C(c2ccc(Cl)cc2)=N1` (racemic), for which the efflux ratio in data set [2] is 34.
Turning to `NC(=O)CN=C(NS(=O)(=O)c1ccc(Cl)cc1)N1CC(c2ccccc2)C(c2ccc(Cl)cc2)=N1` (single isomer, unassigned; enantiomer 1), in data set [1], the BPR was 4%.
